Results as given in PubChem BioAssay AID463187 (University of Pittsburgh Molecular Library Screening Center, 2010).
The entries are a selection whose mix differs from that of the whole data set. Some of these compounds have results that are not shown, active ones among them. Calls of active or inactive are those of the source.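 Rule for the calls: active = Hck-Nef kinase inhibition above about 50% (limit read from the data); inactive = inhibition below that limit.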

Protein sequences, listed by entry. Tags and fused reporters are not part of them.
UniProt P08631, whole entry, looked up: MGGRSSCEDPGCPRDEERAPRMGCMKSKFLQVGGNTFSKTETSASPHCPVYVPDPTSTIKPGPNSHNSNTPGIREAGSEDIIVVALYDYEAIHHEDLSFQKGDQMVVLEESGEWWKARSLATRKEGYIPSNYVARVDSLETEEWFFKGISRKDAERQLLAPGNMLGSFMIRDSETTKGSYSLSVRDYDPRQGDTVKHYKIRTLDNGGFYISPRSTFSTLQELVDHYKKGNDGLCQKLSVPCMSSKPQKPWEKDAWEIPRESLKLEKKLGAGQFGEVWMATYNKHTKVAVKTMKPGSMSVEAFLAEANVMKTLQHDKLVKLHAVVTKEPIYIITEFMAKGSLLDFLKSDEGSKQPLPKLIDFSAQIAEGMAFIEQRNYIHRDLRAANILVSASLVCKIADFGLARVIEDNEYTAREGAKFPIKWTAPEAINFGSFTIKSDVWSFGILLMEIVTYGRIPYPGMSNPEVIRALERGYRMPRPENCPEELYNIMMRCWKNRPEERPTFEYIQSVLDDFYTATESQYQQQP

target: Tyrosine-protein kinase HCK (Homo sapiens) (UniProt P08631); assay: inhibitors of Nef-activated human Hck kinase, primary screen, biochemical, Z-Lyte FRET, 384-well, Hck-YEEI (AID 463187); settings: Recombinant Hck-YEEI plus Nef, Z-Lyte FRET kinase assay; at 20 µM; stronger effect = higher value;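 note: 0% = DMSO with Hck plus Nef and 100% = Hck alone without Nef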

**Q.** With COc1cccc(C(=O)NCC2(N3CCCCC3)CCCCC2)c1 as the compound, how does the inhibition read?
**A.** The inhibition was inactive: 17.2%.

**Q.** With CN(C)c1cccc(C(=O)NCC2(N(C)C)CCCCC2)c1 as the compound, how does the inhibition read?
**A.** Its inhibition is inactive: 1.86%.

**Q.** How did the inhibition turn out when COc1ccc(Br)c(C(=O)NCC2(N3CCCCC3)CCCCC2)c1 was run?
**A.** The inhibition was inactive: 3.73%.

**Q.** How did the inhibition turn out when O=C(OC1CN2CCC1CC2)C(CO)(c1ccccc1)c1ccccc1 (stereo unspecified) was run?
**A.** The inhibition was inactive: 0.575%.

**Q.** Which inhibition does the source give for CC(C)N1C(=O)CC2(CCN(CCOC(=O)C(O)(c3ccccc3)c3ccccc3)CC2)C1=O here?
**A.** The inhibition was inactive: -0.897%.

**Q.** CCN(CC)CC(C)C(C)OC(=O)C(O)(c1ccccc1)c1ccccc1 (stereo unspecified) was tested. Which inhibition did it give?
**A.** Its inhibition is inactive: 18.7%.

**Q.** Which inhibition does the source give for O=C(NCC1(N2CCCCC2)CCCCC1)c1cc([N+](=O)[O-])ccc1Cl here?
**A.** The inhibition was inactive: 16.7%.

**Q.** CCN1CCCC(OC(=O)C2(O)c3ccccc3C=Cc3ccccc32)C1 (stereo unspecified) was tested. Which inhibition did it give?
**A.** The inhibition was inactive: 4.69%.

**Q.** How did the inhibition turn out when C=CCN1CCN(CCOC(=O)C(O)(c2ccccc2)c2ccccc2)CC1 was run?
**A.** Its inhibition is inactive: 17.4%.

**Q.** For Cc1ccccc1C(=O)NCC1(N2CCCCC2)CCCCC1, which inhibition is on record?
**A.** The inhibition was inactive: 20.7%.

**Q.** With CN(C)C1CCCC1OC(=O)C(O)(c1ccccc1)c1ccccc1 (stereo unspecified) as the compound, how does the inhibition read?
**A.** Its inhibition is inactive: 0.899%.
